This note sets out measurements from patent publication US12583836B2 (Anaxis Pharma Pty Ltd, priority 2020, dated 2026).

For this assay, the target named is T1, MLKL (full length) (Homo sapiens, UniProt Q8NB16).
T1 construct: purchased DiscoverX (KINOMEscan service); host or cells: E. coli BL21-derived (T7 phage) or HEK293
T1 sequence (Q8NB16 1-471): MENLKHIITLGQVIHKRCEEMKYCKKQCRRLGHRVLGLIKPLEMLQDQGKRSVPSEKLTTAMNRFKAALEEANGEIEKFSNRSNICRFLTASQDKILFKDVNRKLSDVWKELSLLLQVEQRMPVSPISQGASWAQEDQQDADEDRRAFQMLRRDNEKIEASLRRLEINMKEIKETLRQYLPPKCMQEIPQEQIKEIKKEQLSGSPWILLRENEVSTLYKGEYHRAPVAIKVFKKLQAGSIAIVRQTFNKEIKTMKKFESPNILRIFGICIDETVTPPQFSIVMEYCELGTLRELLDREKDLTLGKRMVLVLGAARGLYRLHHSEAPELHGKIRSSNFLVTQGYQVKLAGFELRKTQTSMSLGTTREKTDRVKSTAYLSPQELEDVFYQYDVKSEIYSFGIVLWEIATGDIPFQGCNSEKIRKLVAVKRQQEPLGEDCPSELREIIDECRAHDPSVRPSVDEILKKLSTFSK
The assay is described as follows: KINOMEscan binding assay, MLKL. The conditions noted are these: equilibrium dissociation constant, class symbols.
As for “3-(4-(ethylsulfonamido)-3-((4-fluorobenzyl)oxy)phenyl)-5-((4-(trifluoromethpyridinedin-2-yl)amino)-1H-pyrazole-4-carboxamide [Compound 213]”, the Kd (in general, the constant that tells how readily two partners part at equilibrium) was 10 to 1000 nM. For `CCC(Oc1cc(-c2n[nH]c(Nc3cnccn3)c2C(N)=O)ccc1NS(=O)(=O)CC(F)(F)F)c1ccc(F)cc1` (racemic) [Compound 263, 3-(3-(1-(4-fluorophenyl)propoxy)-4-(2,2,2-trifluoroethylsulfonamido)phenyl)-5-(pyrazin-2-ylamino)-1H-pyrazole-4-carboxamide], the Kd was less than 10 nM. The result for `CC(Oc1cc(-c2n[nH]c(Nc3cnccn3)c2C(N)=O)ccc1NS(=O)(=O)C(F)F)c1ncco1` (racemic) [Compound 293, 3-(4-((difluoromethyl)sulfonamido)-3-(1-(oxazol-2-yl)ethoxy)phenyl)-5-(pyrazin-2-ylamino)-1H-pyrazole-4-carboxamide] reads less than 10 nM; that for `COC[C@@H](Cc1cc(-c2n[nH]c(Nc3cnccn3)c2C(N)=O)ccc1NS(=O)(=O)C(F)F)c1ccc(F)cc1` (single isomer, unassigned) [Compound 273], less than 10 nM. The result for `C[C@@H](Oc1cc(-c2n[nH]c(Nc3cnccn3)c2C(N)=O)ccc1NS(=O)(=O)C(F)F)c1ncco1` (single isomer, unassigned) [Compound 280] reads less than 10 nM. With `COC[C@H](Oc1cc(-c2n[nH]c(Nc3cc(C)on3)c2C(N)=O)ccc1NS(=O)(=O)C(F)F)c1ccc(F)cc1` (single isomer, unassigned) [Compound 299], the Kd was less than 10 nM. The result for `CCS(=O)(=O)Nc1ccc(-c2n[nH]c(Nc3cccc(C(F)(F)F)n3)c2C(N)=O)cc1OCc1cccc(Cl)c1` [Compound 3, 3-(3-((3-chlorobenzyl)oxy)-4-(ethylsulfonamido)phenyl)-5-((6-(trifluoromethyl)pyridin-2-yl)amino)-1H-pyrazole-4-carboxamide] reads 1000 to 30000 nM; that for `CCS(=O)(=O)Nc1ccc(-c2n[nH]c(Nc3cnccn3)c2C(N)=O)cc1OCC1CCN(C(C)=O)CC1` [Compound 7, 3-(3-((1-acetylpiperidin-4-yl)methoxy)-4-(ethylsulfonamido)phenyl)-5-(pyrazin-2-ylamino)-1H-pyrazole-4-carboxamide], 1000 to 30000 nM. The result for `CCS(=O)(=O)Nc1ccc(-c2n[nH]c(Nc3cccc(C(F)(F)F)n3)c2C(N)=O)cc1OCC1CCCC1` [Compound 10, 3-(3-(cyclopentylmethoxy)-4-(ethylsulfonamido)phenyl)-5-((6-(trifluoromethyl)pyridin-2-yl)amino)-1H-pyrazole-4-carboxamide] reads 10 to 1000 nM; that for `CCS(=O)(=O)Nc1ccc(-c2n[nH]c(Nc3cccc(C(F)(F)F)n3)c2C(N)=O)cc1OCC(C)C` [Compound 12, 3-(4-(ethylsulfonamido)-3-isobutoxyphenyl)-5-((6-(trifluoromethyl)pyridin-2-yl)amino)-1H-pyrazole-4-carboxamide], 10 to 1000 nM; that for `CCS(=O)(=O)Nc1ccc(-c2n[nH]c(Nc3cnc(OC)cn3)c2C(N)=O)cc1OCc1ccc(F)cc1` [Compound 14, 3-(4-(ethylsulfonamido)-3-((4-fluorobenzyl)oxy)phenyl) 5-((5-methoxypyrazin-2-yl)amino)-1H-pyrazole-4 carboxamide], less than 10 nM. The result for `CCS(=O)(=O)Nc1ccc(-c2n[nH]c(Nc3cccc(C(F)(F)F)n3)c2C(N)=O)cc1OCc1ccncc1` [Compound 16, 3-(4-(ethylsulfonamido)-3-(pyridin-4-ylmethoxy)phenyl)-5-((6-(trifluoromethyl)pyridin-2-yl)amino)-1H-pyrazole-4-carboxamide] reads 10 to 1000 nM. In turn, `CCS(=O)(=O)Nc1ccc(-c2n[nH]c(Nc3ccccn3)c2C(N)=O)cc1OCc1ccccc1` [Compound 20, 3-(3-(benzyloxy)-4-(ethylsulfonamido)phenyl)-5-(pyridin-2-ylamino)-1H-pyrazole-4-carboxamide] displayed a Kd of less than 10 nM. In turn, `CCS(=O)(=O)Nc1ccc(-c2n[nH]c(Nc3cnccn3)c2C(N)=O)c(OCc2ccc(F)cc2)c1` [Compound 21, 3-(4-(ethylsulfonamido)-2-((4-fluorobenzyl)oxy)phenyl)-5-(pyrazin-2-ylamino)-1H-pyrazole-4-carboxamide] came in with a Kd of less than 10 nM.

For `CCS(=O)(=O)Nc1ccc(-c2n[nH]c(Nc3cnccn3)c2C(N)=O)cc1OCc1cccc(F)c1` [Compound 26, 3-(4-(ethylsulfonamido)-3-((3-fluorobenzyl)oxy)phenyl)-5-(pyrazin-2-ylamino)-1H-pyrazole-4-carboxamide], the Kd was less than 10 nM.

`CCS(=O)(=O)Nc1ccc(-c2n[nH]c(Nc3cnccn3)c2C(N)=O)cc1OCc1ccncc1` [Compound 28, 3-(4-(ethylsulfonamido)-3-(194yridine-4-ylmethoxy)phenyl)-5-(pyrazin-2-ylamino)-1H-pyrazole-4-carboxamide] yielded a Kd of less than 10 nM. The result for `CCS(=O)(=O)Nc1ccc(-c2n[nH]c(Nc3ccccn3)c2C(N)=O)cc1OCc1ccc(F)cc1` [Compound 30, 3-(4-(ethylsulfonamido)-3-((4-fluorobenzyl)oxy)phenyl)-5-(pyridin-2-ylamino)-1H-pyrazole-4-carboxamide] reads less than 10 nM. The result for `CCS(=O)(=O)Nc1ccc(-c2n[nH]c(Nc3cnccn3)c2C(N)=O)cc1OCc1cccnc1` [Compound 32, 3-(4-(ethylsulfonamido)-3-(194yridine-3-ylmethoxy)phenyl)-5-(pyrazin-2-ylamino)-1H-pyrazole-4-carboxamide] reads less than 10 nM. The result for `CCS(=O)(=O)Nc1ccc(-c2n[nH]c(Nc3ccccn3)c2C(N)=O)cc1OCC1CCCCC1` [Compound 35, 3-(3-(cyclohexylmethoxy)-4-(ethylsulfonamido)phenyl)-5-(pyridin-2-ylamino)-1H-pyrazole-4-carboxamide] reads 10 to 1000 nM; that for `CCS(=O)(=O)Nc1ccc(-c2n[nH]c(Nc3ccccn3)c2C(N)=O)cc1OCC(C)C` [Compound 37, 3-(4-(ethylsulfonamido)-3-isobutoxyphenyl)-5-(pyridin-2-ylamino)-1H-pyrazole-4-carboxamide], 10 to 1000 nM. As to `CCS(=O)(=O)Nc1ccc(-c2n[nH]c(Nc3cnccn3)c2C(N)=O)cc1OCC1CCCC1` [Compound 40, 3-(3-(cyclopentylmethoxy)-4-(ethylsulfonamido)phenyl)-5-(pyrazin-2-ylamino)-1H-pyrazole-4-carboxamide], the Kd is less than 10 nM. The result for `CCS(=O)(=O)Nc1ccc(-c2n[nH]c(Nc3cnccn3)c2C(N)=O)cc1OCc1cccc(Cl)c1` [Compound 41, 3-(3-((3-chlorobenzyl)oxy)-4-(ethylsulfonamido)phenyl)-5-(pyrazin-2-ylamino)-1H-pyrazole-4-carboxamide] reads less than 10 nM; that for `NC(=O)c1c(-c2ccc(NS(=O)(=O)CC(F)(F)F)cc2)n[nH]c1Nc1cccc(C(F)(F)F)n1` [Compound 43, 3-(4-((2,2,2-trifluoroethyl)sulfonamido)phenyl)-5-((6-(trifluoromethyl)pyridin-2-yl)amino)-1H-pyrazole-4-carboxamide], less than 10 nM; that for `CCS(=O)(=O)Nc1ccc(-c2n[nH]c(Nc3cnccn3)c2C(N)=O)cc1OCC(C)C` [Compound 45, 3-(4-(ethylsulfonamido)-3-isobutoxyphenyl)-5-(pyrazin-2-ylamino)-1H-pyrazole-4-carboxamide], 10 to 1000 nM.

Compound `CCS(=O)(=O)Nc1ccc(-c2n[nH]c(Nc3cnccn3)c2C(N)=O)cc1OCC1CCCCC1` [Compound 47, 3-(3-(cyclohexylmethoxy)-4-(ethylsulfonamido)pheny)-5-(pyrazin-2-ylamino)-1H-pyrazole-4-carboxamide] returned a Kd of less than 10 nM. Regarding `NC(=O)c1c(-c2ccc(NS(=O)(=O)CC(F)F)cc2)n[nH]c1Nc1cccc(C(F)(F)F)n1` [Compound 49, 3-(4-((2,2-difluoroethyl)sulfonamido)phenyl)-5-((6-(trifluoromethyl)pyridin-2-yl)amino)-1H-pyrazole-4-carboxamide], the Kd was less than 10 nM. The result for `NC(=O)c1c(-c2ccc(NS(=O)(=O)C3CC3)cc2)n[nH]c1Nc1cccc(C(F)(F)F)n1` [Compound 52, 3-(4-(cyclopropanesulfonamido)phenyl)-5-((6-(trifluoromethyl)pyridin-2-yl)amino)-1H-pyrazole-4-carboxamide] reads less than 10 nM; that for `NC(=O)c1c(-c2ccc(NS(=O)(=O)Cc3ccc(Cl)c(Cl)c3)cc2)n[nH]c1Nc1cccc(C(F)(F)F)n1` [Compound 56, 3-(4-((3,4-dichlorophenyl)methylsulfonamido)phenyl)-5-((6-(trifluoromethyl)pyridin-2-yl)amino)-1H-pyrazole-4-carboxamide], 10 to 1000 nM. The result for `NC(=O)c1c(-c2ccc(NS(=O)(=O)Cc3cccc(Cl)c3)cc2)n[nH]c1Nc1cccc(C(F)(F)F)n1` [Compound 59, 3-(4-(((3-chlorophenyl)methyl)sulfonamido)phenyl)-5-((6-(trifluoromethyl)pyridin-2-yl)amino)-1H-pyrazole-4-carboxamide] reads 10 to 1000 nM. The result for `NC(=O)c1c(-c2ccc(NS(=O)(=O)C(F)F)cc2)n[nH]c1Nc1cnccn1` [Compound 63, 3-(4-((difluoromethyl)sulfonamido)phenyl)-5-(pyrazin-2-ylamino)-1H-pyrazole-4-carboxamide] reads less than 10 nM.
